# Reference: PubChem BioAssay AID1654 (Sanford-Burnham Center for Chemical Genomics, 2009)
# By UniProt entry, the sequences of proteins in these tests, tags left out.
# UniProt P51452, whole entry: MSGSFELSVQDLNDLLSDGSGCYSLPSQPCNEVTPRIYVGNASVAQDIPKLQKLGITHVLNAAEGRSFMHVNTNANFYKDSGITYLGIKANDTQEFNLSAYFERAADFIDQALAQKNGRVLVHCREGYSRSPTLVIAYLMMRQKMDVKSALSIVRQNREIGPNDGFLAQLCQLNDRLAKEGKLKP
# Only a part is listed here, and it is no random draw. The source made the active and inactive calls. Cut-off read from the data, not from the text of the source: active = inhibition above about 50%; inactive = the rest.
# Biological target: Dual specificity protein phosphatase 3 (Homo sapiens) (UniProt P51452)
# Experiment: inhibition of human DUSP3 activity – biochemical, absorbance, uHTS, primary screen (AID 1654)
# Conditions: recombinant VHR phosphatase, pNPP absorbance; at 13.3 µM; stronger effect = higher value
row,Structure (SMILES),inhibition
1,CCC(CO)(C(=O)OC1CN2CCC1CC2)c1ccccc1 (configuration not stated),inactive: -10.1%
2,COc1cc(OC)cc(C(=O)NCC2(N3CCOCC3)CCCCC2)c1,inactive: 13.9%
3,CCCOc1ccc(C)cc1CN(CCCl)CCCl,inactive: -0.9%
4,CN1CCC(Nc2ccc(Cl)cc2)CC1,inactive: -7.9%
5,CCOc1ncccc1C(=O)NCC1(N2CCOCC2)CCCCC1,inactive: 10.5%
6,CN1CCC(Nc2ccc(F)c(Cl)c2)CC1,inactive: 21.9%
7,CCCOc1ccc(C(=O)NCC2(N(C)C)CCCCC2)cc1,inactive: 27.4%
8,CC(C)(C)OC(=O)N1CCC(Nc2ccccc2)CC1,inactive: 5.5%
9,O=C(O)C1(Nc2ccccc2)CCN(Cc2ccccc2)CC1,inactive: 26.3%
10,CCN1CCC(Nc2cccc(F)c2)CC1,inactive: 31.5%
11,CN(C)c1ccc(C(=O)NCC2(N3CCCCC3)CCCCC2)cc1,inactive: 33.3%
12,COc1cc(OC)cc(C(=O)NCC2(N3CCCCC3)CCCCC2)c1,inactive: 13%
13,Fc1ccccc1NC1CCN(Cc2ccccc2)CC1,inactive: -14.1%
14,c1ccc(CN2CCC(Nc3ccccc3)CC2)cc1,inactive: -1.7%
15,CCCN1CCC(Nc2cc(OC)cc(OC)c2)CC1,inactive: 0.7%
16,CN(C)C1(CNC(=O)c2cccc(C#N)c2)CCCCC1,inactive: 6%
17,CC(C)(C)OC(=O)N1CCC(N(C(=O)c2ccccc2)c2ccc(Cl)cc2)CC1,inactive: 13.3%
18,N#Cc1ccc(C(=O)NCC2(N3CCCCC3)CCCCC2)cc1,inactive: 22.6%
19,N/C(=N\O)c1c(N)no[n+]1[O-],inactive: 13.8%
20,CCOC(=O)N1CCC(Nc2ccc(C)cc2)CC1,inactive: 4.9%
21,O=C(OC1CN2CCC1CC2)C1c2ccccc2C=Cc2ccccc21 (configuration not stated),inactive: -1.5%
22,COc1ccc(C(=O)NCC2(N3CCOCC3)CCCCC2)cc1OC,inactive: 24.9%
23,CCCOc1ccc(C(=O)NCC2(N(C)C)CCCCC2)cc1OC,inactive: 27.4%
24,COc1ccc(CN(CCCl)CCCl)cc1Cl,inactive: 15.1%
25,CN(C)c1cccc(C(=O)NCC2(N3CCCCC3)CCCCC2)c1,inactive: 13%
26,CC(C)c1ccc(NC2CCN(C(=O)OC(C)(C)C)CC2)cc1,inactive: 24.4%

row,Structure (SMILES),inhibition
1,COc1cc(OC)c(C(=O)NCC2(N(C)C)CCCCC2)cc1OC,inactive: -2%
2,O=C(NCC1(N2CCCCC2)CCCCC1)c1cccc(C(F)(F)F)c1,inactive: -2.7%
3,COc1ccc(NC2CCN(C(=O)OC(C)(C)C)CC2)cc1,inactive: 20.6%
4,CN1CCN(CCOC(=O)C(O)(c2ccccc2)c2ccccc2)CC1,inactive: 1.7%
5,O=C(NCC1(N2CCOCC2)CCCCC1)c1cc(=O)[nH]c2ccccc12,inactive: -8.1%
6,COc1cc(C(=O)NCC2(N3CCCCC3)CCCCC2)ccc1OC(F)F,inactive: 6.7%
7,O=C(NCC1(N2CCCCC2)CCCCC1)c1ccc(OC(F)F)cc1,inactive: 23.1%
8,O=C(NCC1(N2CCCCC2)CCCCC1)c1cccc([N+](=O)[O-])c1,inactive: 18.8%
9,CCN1CCC(Nc2ccc(Cl)cc2)CC1,inactive: 0.3%
10,N#CC1(Nc2ccccc2)CCN(CCc2ccccc2)CC1,inactive: 16.5%
11,COc1cc(C(=O)NCC2(N(C)C)CCCCC2)ccc1OC(F)F,inactive: 27.4%
12,CCOC(=O)N1CCC(Nc2cccc(C)c2)CC1,inactive: 4.4%
13,Cc1ccc(OCC(C)C)c(CN(CCCl)CCCl)c1,inactive: 16.6%
14,CCOc1ccc(C)cc1CN(CCCl)CCCl,inactive: 9.6%
15,O=C(NCC1(N2CCCCC2)CCCCC1)c1ccc(F)cc1,active: 52%
16,CCOC(=O)N1CCC(Nc2ccc(F)cc2)CC1,inactive: -8.4%
17,COc1ccc(NC2CCN(CCc3ccccc3)CC2)c(OC)c1,inactive: 37.6%
18,O=C(NCC1(N2CCOCC2)CCCCC1)c1cc2ccccc2o1,inactive: 11.9%
19,Cc1cc(C)cc(N(C(=O)c2ccccc2)C2CCN(C(=O)OC(C)(C)C)CC2)c1,inactive: 13.8%
20,CCOC(=O)N1CCC(Nc2ccc(OC)cc2)CC1,inactive: 18.4%
21,O=C(OC1CN2CCC1CC2)C1c2ccccc2Oc2ccccc21 (configuration not stated),inactive: 15.3%
22,N#CC1(Nc2ccccc2)CCN(Cc2ccccc2)CC1,inactive: 8.7%
23,O=C(NCC1(N2CCCCC2)CCCCC1)c1ccc(=O)[nH]c1,inactive: 1.8%
24,COc1ccc(C(=O)NCC2(N3CCCCC3)CCCCC2)cc1,inactive: 35.8%
25,COc1ccc(C(=O)NCC2(N3CCCCC3)CCCCC2)c(OC)c1OC,inactive: 5.1%
26,CSc1ccccc1C(=O)NCC1(N2CCCCC2)CCCCC1,inactive: 45.6%
